An excerpt weighted towards active compounds, which were near 2.3% of everything screened.
MC4R barr agon = agonists of human melanocortin 4 receptor (MC4R) beta-arrestin; U2OS MC4R beta-arrestin complementation, luminescence; percent of melanotan II response, DMSO zero; activation, % at 8.9 µM; hit rate 0.98% among 360,000; AID 540308;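 active = activation above a per-plate cutoff, the mean activation of sample wells on that plate plus 3 SD, cut at about 8% in these data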
NRP1-CendR mod = modulators of CendR peptide binding to human neuropilin-1; AID 602438; O14786; FAM-RPARPAR peptide binding to NRP-1, fluorescence polarization; hit rate 0.85% among 360,000; inhibition, % at 25 µM;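 active = inhibition or corrected inhibition above about 18%, plus a signal ratio from 0.5 to 1.5, limit read from the data, passing the limit was not always enough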
MC4R antag cAMP = antagonists of human melanocortin 4 receptor (MC4R); P32245; hit rate 0.48% among 360,000; MC4R-expressing cells, MTII-stimulated cAMP, LANCE TR-FRET; inhibition, % at 6.5 µM;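 active = inhibition above its plate's cutoff, the mean of tested wells on that plate plus 3 SD, cut at about 29% in these data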
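Material – human MC4R-expressing U2OS cells · Repeats – no replicates · Detection – TR-FRET with Eu-cAMP and labeled anti-cAMP, 671 nm · Times – compound 30 min, challenge 1 h, detection 1 h · Compound – single nominal compound dose of 6.5 µM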
UUG fidelity = modulators of yeast start codon fidelity, primary screen, whole organism, S. cerevisiae, single point, plate reader; activity score, % at 18.7 µM; actives 0.13% (n = 350,000); S. cerevisiae UUG-firefly luciferase reporter, luminescence/redox ratio;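 active = replicate mean at a twofold rise or more, about +100% in these data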;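 also: firefly luciferase made from a UUG start codon reports start codon fidelity; reporter light over untreated wells divided by growth signal over untreated wells; some hits fall short of that in this replicate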
ARFGAP1 inhibitor = rat ARFGAP1 inhibition; inhibition, % at 16.5 µM; hit rate 0.26% among 360,000; Arfgap1-stimulated ARF1 GTP hydrolysis, GDP FP detection; Q62848;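 active = inhibition above a per-plate limit, mean inhibition of low control wells plus 3 SD, cut at about 25% in these data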
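system = rat Arfgap1 catalytic domain, aa 1-136 | technique = FP, GDP Alexa 633 tracer displaced from anti-GDP antibody, 620/688 nm | compound = one concentration, 16.5 µM, DMSO 1.26% | medium = HEPES-based buffer, pH 7.5 | timing = compound-enzyme preincubation 20 min, reaction 120 min, detection 60 min, 25 °C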
ASAP1 GAP inh = blocks human ASAP1-stimulated Arf1 GTP hydrolysis; GDP FP detection; inhibition, % at 16.5 µM; Q9ULH1; hit rate 0.19% among 360,000; in the data active = inhibition above about 25%
Numbers stand for hits.

`Cc1cccc(Nc2nnc(SCC(=O)Nc3cccc(S(=O)(=O)N4CCCCC4)c3)s2)c1` gave MC4R barr agon inactive, NRP1-CendR mod inactive, MC4R antag cAMP inactive, UUG fidelity inactive, ARFGAP1 inhibitor inactive and ASAP1 GAP inh inactive.
Cc1ccc(S(=O)(=O)N2CCCCC2)cc1NC(=O)CSCC(=O)O was read as MC4R barr agon inactive, NRP1-CendR mod 59, MC4R antag cAMP inactive, ARFGAP1 inhibitor inactive and ASAP1 GAP inh inactive.
C[C@@H]1CCCCO[C@@H](CN(C)C(=O)CCC(F)(F)F)[C@@H](C)CN([C@H](C)CO)C(=O)c2cc(NC(=O)Nc3ccc4c(c3)OCO4)ccc2O1 was read as UUG fidelity inactive.
For O=C(c1ccncc1)N1C[C@H]2[C@@H](c3ccccc31)[C@@H](CO)N2C(=O)c1ccncc1 the results were UUG fidelity inactive.
Screening COc1cc(O)cc2cc3c(c(O)c12)C(=O)CC(C)(O)O3 (centres undefined) returned MC4R barr agon inactive, NRP1-CendR mod 38, MC4R antag cAMP inactive, UUG fidelity inactive, ARFGAP1 inhibitor inactive and ASAP1 GAP inh inactive.
COc1cc(O)c2c(c1)OC(C)(C)CC2=O was read as MC4R barr agon inactive, NRP1-CendR mod inactive, MC4R antag cAMP inactive, UUG fidelity inactive, ARFGAP1 inhibitor inactive and ASAP1 GAP inh inactive.
OCCNc1ncnc2ccc(Br)cc12 was read as MC4R barr agon inactive, NRP1-CendR mod 44, MC4R antag cAMP inactive, UUG fidelity inactive, ARFGAP1 inhibitor inactive and ASAP1 GAP inh inactive.
Screening CCCNc1ncnc2ccc(Br)cc12 returned UUG fidelity inactive.
Screening C=CCNC(=S)N/N=C/c1ccccc1OCCOc1ccccc1 returned MC4R barr agon 8.9, NRP1-CendR mod inactive, MC4R antag cAMP inactive, UUG fidelity inactive, ARFGAP1 inhibitor inactive and ASAP1 GAP inh inactive.
`COc1ccccc1S(=O)(=O)N[C@@H]1C=C[C@@H](CC(=O)N2CCN(C)CC2)O[C@H]1CO` gave UUG fidelity inactive.
`C[C@@H]1CN([C@H](C)CO)C(=O)c2cc(NC(=O)Cc3ccccc3)ccc2O[C@@H](C)CCCCO[C@H]1CN(C)S(=O)(=O)c1ccccc1` gave UUG fidelity inactive.
For O=C1C=C(NCc2ccccc2)C2(CCCCC2)O1 the results were MC4R barr agon inactive, NRP1-CendR mod inactive, MC4R antag cAMP inactive, UUG fidelity inactive, ARFGAP1 inhibitor inactive and ASAP1 GAP inh inactive.
For O=C1C=C(NCc2ccco2)C2(CCCCC2)O1 the results were MC4R barr agon inactive, NRP1-CendR mod 23, MC4R antag cAMP inactive, UUG fidelity inactive, ARFGAP1 inhibitor inactive and ASAP1 GAP inh inactive.
O=C(C[C@@H]1CC[C@@H](NC(=O)c2cccc(F)c2)[C@@H](CO)O1)Nc1nccs1 was read as UUG fidelity inactive.
Screening COCCCNC(=O)c1cccn2c(=O)c3cc4ccccc4cc3nc12 returned MC4R barr agon 9.1, NRP1-CendR mod inactive, MC4R antag cAMP inactive, UUG fidelity inactive, ARFGAP1 inhibitor inactive and ASAP1 GAP inh inactive.
C=CCn1c(=N)c(C(=O)NCCCOC)cc2c(=O)n3cccc(C)c3nc21 was read as MC4R barr agon inactive, NRP1-CendR mod inactive, MC4R antag cAMP inactive, UUG fidelity inactive, ARFGAP1 inhibitor inactive and ASAP1 GAP inh inactive.
Nc1nc(-c2c[nH]c3ccccc23)cs1 was read as MC4R barr agon inactive, NRP1-CendR mod inactive, MC4R antag cAMP inactive, UUG fidelity inactive, ARFGAP1 inhibitor inactive and ASAP1 GAP inh inactive.
For CCC(C)Nc1nc(-c2c[nH]c3ccccc23)cs1 (centres undefined) the results were MC4R barr agon inactive, NRP1-CendR mod inactive, MC4R antag cAMP inactive, UUG fidelity inactive, ARFGAP1 inhibitor 32 and ASAP1 GAP inh inactive.
For CC(=O)Nc1c2c3c(cccc3n(C)c1=O)C(=O)c1ccccc1-2 the results were MC4R barr agon inactive, NRP1-CendR mod 53, MC4R antag cAMP inactive, ARFGAP1 inhibitor inactive and ASAP1 GAP inh inactive.
`Cn1c(=O)c(Nc2ccc(Cl)cc2)c2c3c(cccc31)C(=O)c1ccccc1-2` gave ARFGAP1 inhibitor inactive and ASAP1 GAP inh inactive.
`Cc1ccc(CNC(=O)CS(=O)(=O)CC(=O)O)cc1` gave MC4R barr agon inactive, NRP1-CendR mod 21, MC4R antag cAMP inactive, UUG fidelity inactive, ARFGAP1 inhibitor inactive and ASAP1 GAP inh inactive.
